This is a sample that favours compounds with a hit; in the whole collection about 0.46% have one here.
PINK1 expr mod: modulators of PINK1 expression. PINK1 immunofluorescence, high-content cytometry, 24 h. Potency, µM (doses to about 76.6 µM), for inactives: at the highest dose activation (PINK1 increase), actives largely listed as activators. hit rate 0.2% among 410,000; active = well fitted activation curve with a large enough effect; inconclusive = small, poorly fitted or top-dose-only effect; cell line not stated here; also: potency is read from the fitted curve at half-maximal effect; % of control where 0% means no effect; nearly all actives have a fitted effect of over 65% in size
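Stable cell line, 250 cells/well, 12 h attachment; compounds pinned at 5 concentrations, 24 h; CCCP control. Fixed with nuclear dye, primary antibodies 12 h at 10 degrees C, secondary plus cell stain; laser-scanning cytometer read.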
Pin1 inhibitor: blocks the human prolyl isomerase Pin1 | Q13526 | Pin1 FP peptide displacement, HiFluor488, 10 min | Potency, µM (top dose mostly 115 µM), without a hit: top-dose activity, negative = inhibition, usual class: inhibitors | hit rate 0.009% among 390,000 | AID 504891; active = well fitted inhibition curve with a large enough effect in the polarisation, with a control signal flat, not every such curve was filed as active; inconclusive = small, poorly fitted or top-dose-only effect, or effect the other way, or a change in a side signal; inactive = no such curve, though single readings can be large or run the other way; the % refers to the polarisation; also: potency is read from the fitted curve at half-maximal effect; % is scaled to controls: 0 for no effect and ±100 for the full control effect
miR-21 reporter: miR-21 reporter, rising signal | HeLa miR-21 FLuc reporter, luciferase, 48 h | Potency, µM (doses to about 38.3 µM), inactives show at the top dose reporter change, positive = more light | 340,000 tested, under 10 active | AID 2288; active = well fitted rising curve with a large enough effect; inconclusive = small, poorly fitted or top-dose-only effect; inactive = no such curve, though single readings can be large or run the other way;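 note: % of control where 0% means no effect; miR-21 action dims this reporter so a rising signal means less miR-21 action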
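HeLa cells stably expressing CMV-driven firefly luciferase with a downstream miR-21 binding sequence, endogenously expressing miR-21, were treated with titrations (up to about 40uM final) for 48 hours at 37 degree Celsius. Luciferase luminescence was read after lysis.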
B2AR arrestin: beta2AR (human) beta-arrestin recruitment activity. P07550. beta-arrestin recruitment to beta2AR, cell-based reporter. Potency, µM (doses to about 46.1 µM), for the others: top-dose activation, most hits filed as activators. hit rate 0.02% among 330,000;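 also: potency is read from the fitted curve at half-maximal effect; 0% = DMSO controls and full agonism = EC100 isoproterenol or metaproterenol; nearly all actives have a fitted effect of over 65% in size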
Chronic BCR inh: chronic active BCR signaling inhibition. ABC-DLBCL IkBa-CBG/CBR reporter, luminescence ratio, 4 h. Potency, µM (doses to about 46.1 µM), for the others: top-dose activity change, negative = inhibition, actives largely listed as inhibitors. hit rate 0.05% among 340,000; active = well fitted inhibition curve with a large enough effect in the signal ratio, with a control signal flat, not every such curve was filed as active; inconclusive = small, poorly fitted or top-dose-only effect, or effect the other way, or a change in a side signal; the % refers to the signal ratio;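 also: potency is read from the fitted curve at half-maximal effect; plate controls were basal doxycycline-induced cells for no effect and cells given 10 µM MG132 for full effect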
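Compounds up to 46 uM were incubated four hours with TMD8 cells whose green CBG68 luciferase is fused to IkappaBalpha; red CBR luminescence normalised the signal, and concentration-effect curves were fitted to fusion, red and ratio data.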
PKM2 act: increases activity of human pyruvate kinase M2; P14618; Potency, µM (titrated, usually from 57.5 µM), for inactives: at the highest dose activation, usual class: activators; AID 1631; purified PKM2, Kinase-Glo ATP luminescence, activation; response scale: 0% is enzyme alone, no compound; hit rate 0.34% among 260,000; also: potency is read from the fitted curve at half-maximal effect; % is scaled to controls: 0 for no effect and ±100 for the full control effect; nearly all actives have a fitted effect of over 55% in size
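Purified hPK-M2 (>95%) run at intermediate activity with 0.1 mM ADP and 0.5 mM PEP in 50 mM imidazole pH 7.2, KCl, MgCl2; 1 h room temperature. ATP formed read by Kinase-Glo luminescence; normalized to uninhibited and no-enzyme controls.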
* hit, by the source's call; ? = inconclusive; . = no result given; [ ] = another dose, or the depositor's remark. Unless noted, calls follow the shape of the dose curve; as a rule, active = well fitted curve in the direction sought with a large enough effect; inconclusive = small, poorly fitted or top-dose-only effect, or another doubt; inactive = no such curve, though single readings can be large; an effect the other way counts as inactive or inconclusive.

Screens by letter: A = PINK1 expr mod; B = Pin1 inhibitor; C = miR-21 reporter; D = B2AR arrestin; E = Chronic BCR inh; F = PKM2 act
(1) N#CC(=Cc1ccc(-c2ccccc2)cc1)C(=O)c1ccccc1
  A = 1%	B = .	C = .	D = .	E = .	F = .

(2) COc1ccc(C2c3c(n(CCCc4ccccc4)cnc3=N)Oc3ccc4ccccc4c32)cc1OC (configuration not stated)
  A = .	B = 0%	C = .	D = .	E = .	F = .

(3) COc1cc(CN2CCC3(CC2)c2ccccc2[C@@H](NC(=O)c2ccccc2OC)[C@@H]3O)ccc1F
  A = 0%	B = .	C = .	D = .	E = .	F = .

(4) CC(C)(C)CC(C)(C)NC(=O)Nc1cccc([N+](=O)[O-])c1
  A = 14µM*	B = ?	C = ?	D = 0%	E = 2%	F = -7%

(5) CC(C)(C)c1ccc(C(=O)Nc2cccc([N+](=O)[O-])c2)cc1
  A = 45µM*	B = 3%	C = 21%	D = 0%	E = ?	F = -7%

(6) O=C(Nc1cccc([N+](=O)[O-])c1)c1ccncc1
  A = 3%	B = 23%	C = -2%	D = 0%	E = ?	F = 0%

(7) Cn1cnnc1Sc1cc(N2CCN(S(=O)(=O)c3ccccc3)CC2)ccc1[N+](=O)[O-]
  A = 1%	B = 3%	C = -10%	D = -1%	E = 1%	F = 0.22µM*

(8) CCS(=O)(=O)c1ccc(Sc2nncn2C)c([N+](=O)[O-])c1
  A = -1%	B = -7%	C = 17%	D = 0%	E = ?	F = .

(9) N#CCCSc1ccccc1NC(=O)c1ccc(S(=O)(=O)N2CCCC2)cc1
  A = .	B = .	C = -11%	D = 0%	E = 1%	F = 20µM*

(10) COC(=O)c1cn([C@@H]2C[C@@H](C(=O)N3CCCCCC3)N(Cc3cc4ccccc4s3)C2)nn1
  A = 0%	B = .	C = .	D = .	E = .	F = .

(11) O=C(N/N=C/c1cnc(N2CCCCC2)s1)c1ccc(Cl)cc1
  A = 28µM*	B = -6%	C = 20%	D = 0%	E = 1%	F = 0%

(12) Cc1ccc(NS(=O)(=O)c2cccc(F)c2)cc1C
  A = .	B = 3%	C = .	D = .	E = .	F = .

(13) O=C(Nc1cccc(F)c1)c1c(O)c2ccccc2[nH]c1=O
  A = 1%	B = -2%	C = -29%	D = 0%	E = ?	F = 1%

(14) O=C(N/N=C/c1ccccc1)c1c(O)c2ccccc2[nH]c1=O
  A = 8.9µM*	B = -3%	C = -49%	D = -1%	E = ?	F = 22%

(15) O=C(N/N=C/c1cccc(F)c1)c1c(O)c2ccccc2[nH]c1=O
  A = 2.8µM*	B = -8%	C = -1%	D = -1%	E = ?	F = -2%

(16) O=C(N/N=C/c1ccc(F)cc1)c1c(O)c2ccccc2[nH]c1=O
  A = 4.5µM*	B = -1%	C = -5%	D = 0%	E = -1%	F = ?

(17) COc1ccc(C2c3c(ncn(CCCc4ccccc4)c3=N)Oc3ccc4ccccc4c32)cc1OC (configuration not stated)
  A = .	B = 21%	C = .	D = .	E = .	F = .

(18) CCCCC1C(=O)CC[C@H]2[C@@H]1CC(=O)[C@@H]2C/C=C\CCCC(=O)O (some centres not stated)
  A = 1%	B = -5%	C = -11%	D = -1%	E = 21µM*	F = -2%

(19) CCCCCC1C(=O)CCC1CC(=O)O (configuration not stated)
  A = 2%	B = .	C = .	D = .	E = .	F = .

(20) CC(=O)Nc1cccc(S(=O)(=O)Nc2ccc(C)c(C)c2)c1
  A = .	B = -2%	C = .	D = .	E = .	F = .

(21) CC(NC(=O)c1cc(F)ccc1F)c1nnc2n1CCN(Cc1ccc(-c3ccccc3)cc1)CC2 (configuration not stated)
  A = 0%	B = .	C = .	D = .	E = .	F = .

(22) COC(=O)c1ccc(=O)c2nc3/c(=C/O)c(O)cc(=O)c3[nH]c12
  A = 1%	B = 7.1µM*	C = 7%	D = 0%	E = ?	F = -4%

(23) COc1cc(OC)c(CN2CCOc3ccc(CN4CCC(O)CC4)cc3C2)c(OC)c1
  A = 0%	B = .	C = .	D = .	E = .	F = .

(24) Cc1ccc(/C=C/C(=O)c2nc3ccccc3[nH]2)cc1
  A = -3%	B = 12%	C = -5%	D = 8%	E = 13µM*	F = -21%

(25) Cc1ccc(/C=C/C(=O)Nc2nc3ccccc3[nH]2)cc1
  A = 7%	B = 4%	C = -60%	D = 0%	E = 7%	F = -6%

Records listed so far printed as active in Pin1 inhibitor:
nr	compound	PINK1 expr mod	Pin1 inhibitor	miR-21 reporter	B2AR arrestin
22	COC(=O)c1ccc(=O)c2nc3/c(=C/O)c(O)cc(=O)c3[nH]c12	1%	7.1µM*	7%	0%

Ordered by the number under PINK1 expr mod (smallest number first): four from the list above
nr	canonical_smiles	PINK1 expr mod
15	O=C(N/N=C/c1cccc(F)c1)c1c(O)c2ccccc2[nH]c1=O	2.8µM*
4	CC(C)(C)CC(C)(C)NC(=O)Nc1cccc([N+](=O)[O-])c1	14µM*
11	O=C(N/N=C/c1cnc(N2CCCCC2)s1)c1ccc(Cl)cc1	28µM*
5	CC(C)(C)c1ccc(C(=O)Nc2cccc([N+](=O)[O-])c2)cc1	45µM*

(further entries)
Screens by letter: A = PINK1 expr mod; B = Pin1 inhibitor; C = miR-21 reporter; D = B2AR arrestin; E = Chronic BCR inh; F = PKM2 act
(26) COc1ccc2nc(C)cc(SCC(=O)N/N=C/c3ccc(O)c(O)c3)c2c1
  A = -2%	B = ?	C = -9%	D = 0%	E = ?	F = 25µM*

(27) COc1ccc2nc(C)cc(SCC(=O)N/N=C/c3cccc4ccccc34)c2c1
  A = -3%[38.3 µM]	B = -4%	C = 18%	D = 0%	E = ?	F = -3%

(28) CCCn1c(NCc2cccc(OC)c2O)nc2ccccc21
  A = 0%	B = -7%	C = -37%	D = 6%	E = ?	F = 25µM*

(29) CCn1c(COc2ccccc2OC)nc2ccccc21
  A = 3%	B = -2%	C = -38%	D = 0%	E = ?	F = ?

(30) CCCCn1c(NCc2cc(C)ccc2O)nc2ccccc21
  A = 16µM*	B = .	C = .	D = .	E = .	F = .

(31) CCCn1c(COc2ccccc2OC)nc2ccccc21
  A = 0%	B = -3%	C = -26%	D = -1%	E = -1%	F = 16µM*

(32) CCCn1c(NCc2cccc(OC)c2OC)nc2ccccc21
  A = 3%	B = -6%	C = -31%	D = 0%	E = 7%	F = 3%

(33) CCCCn1c(NCc2cc(Cl)ccc2O)nc2ccccc21
  A = ?	B = 2%	C = 13%	D = .	E = ?	F = .

(34) C=CCc1cccc(CNc2nc3ccccc3n2C)c1O
  A = 6%	B = -10%	C = -12%	D = -1%	E = 0%	F = 32µM*

(35) O=c1cc(Nc2ccc3c(c2)OCCO3)[nH]c(=O)n1C1CCCCC1
  A = 21%[38.3 µM]	B = 8%	C = 12%	D = -1%	E = 3%	F = -5%

(36) CCc1ccc(Nc2cc(=O)n(C3CCCCC3)c(=O)[nH]2)cc1
  A = 28µM*	B = 2%	C = 0%	D = -1%	E = ?	F = 11%

(37) COCCCNC(=O)/C(C#N)=C/c1cccc(NC(=O)c2ccccc2Cl)c1
  A = ?	B = ?	C = 0%	D = 0%	E = ?	F = 12%

(38) N#C/C(=C\c1cccc(NC(=O)c2ccccc2Cl)c1)C(=O)NCCc1ccccc1
  A = -2%	B = 38%	C = 10%	D = 5%	E = 21µM*	F = 0%

(39) Cc1ccccc1-n1c(SC(C)C(N)=O)nnc1-c1cccnc1 (configuration not stated)
  A = 10µM*	B = 4%	C = 2%	D = 0%	E = -1%	F = -2%

(40) Cc1ccc(/C(=N/Nc2ncnc3ccccc23)C(=O)O)cc1
  A = 1%	B = -10%	C = -56%	D = 11µM*	E = ?	F = -1%

(41) O=C(NCC1(N2CCOCC2)CCCCC1)c1cnn(-c2nccc(-c3cccs3)n2)c1C1CC1
  A = 2%	B = .	C = .	D = .	E = .	F = .

(42) Cc1ccc(NC(=O)c2cc(C(=O)c3cc(Cl)ccc3O)cn(-c3ccc(C)cc3)c2=O)cc1
  A = 35µM*	B = 57%	C = 15%	D = 0%	E = 0%	F = 4%

(43) COc1ccc(C)cc1S(=O)(=O)NCC(c1cccnc1)N1CCc2ccccc2C1 (configuration not stated)
  A = 3%	B = 9%	C = -8%	D = -1%	E = 6%	F = 11µM*

(44) COc1ccc(C(=O)NCC(c2cccnc2)N2CCc3ccccc3C2)cc1OC (configuration not stated)
  A = 1%	B = 2%	C = -18%	D = .	E = .	F = .

(45) O=C(c1ccccc1)N1CCCCC(S(=O)(=O)c2ccc3ccccc3c2)C1=O (configuration not stated)
  A = 5µM*	B = -2%	C = -4%	D = -1%	E = -2%	F = 2%

(46) COc1ccc(N2C(=O)c3ccccc3NC2c2ccc(OC)c(CSc3ccccn3)c2)cc1 (configuration not stated)
  A = 10µM*	B = 0%	C = -47%	D = 0%	E = -11%	F = 0%

Bioassay records deposited in PubChem by National Center for Advancing Translational Sciences (NCATS).
